# Tested on: adult bed bugs resistant strain (UMC) colony
# Experiment: Contact lethal time of pyrethroids and rosemary oil on treated filter paper, Example 4
# Assay type: in vivo, bed bug
# Conditions: rate 0.01 % by weight
# Protocol: The control is 100 μL […]. Filter paper was then placed on top of the solution.
compound,measurement,value
"CC(C)=CC1C(C(=O)OCc2coc(Cc3ccccc3)c2)C1(C)C (centres unmarked) [Resmethrin, resmethrin]",LT50,31.94 min
same,LT95,417.12 min

# — patent US9743676B2, “Pesticidal compositions comprising a solid insecticide and an essential oil” (AirRx Antimicrobial Sciences Inc., priority 2015, dated 2017)
